Measurements as given in patent US20220226343A1.

Key:
[1] = system: PSA expression in CRPC cell line C4-2; assay: PSA expression in cell culture supernatant of C4-2 cells; conditions: read-out: PSA expression IC50; C4-2 culture supernatant, 4-day treatment, FBS-supplemented regular media
[2] = system: NFκB activation; assay: NFκB reporter assay in CDK8/19 double-knockout 293 reporter cells; conditions: CDK8/19 double-knockout reporter cells
[3] = Mouse PK, oral 1 mg/kg; format: in vivo; conditions: oral (gavage) 1 mg/kg, male FVB mice; 15w in a separate study
[4] = system: alkaline phosphatase (ALPase); conditions: concentration that enhances ALPase activity to 200% of control, ST2 cells; cited from earlier work
[5] = system: CDK8/19; assay: NFκB reporter assay in parental 293 reporter cells; conditions: read-out: NFκB activity Assay IC50; parental 293-derived reporter cell line

IC50 [1]: 15 nM
AUC [3]: 0.0367 µg·h/mL
t1/2 [3]: 37.2 min
SMILES: CN(C)C(=O)Cc1ccc(N2CCCN(c3ccnc4sc(C(N)=O)c(N)c34)CC2)cc1
effect on NFκB activation in CDK8/19-deficient cells [2]: no effect
ALP activity Assay EC200 [4]: 6.6 nM
IC50 [5]: 4 nM
